Assays:
[1] = DSC keratin denaturation temperature change after straightening treatment; set-up: species or system human; settings: Type 3 Caucasian hair after straightening; larger ΔT indicates more damage
Excerpt: This damage occurs at the level of keratin proteins.
Untreated hair was used as a control.
A larger ΔT indicates more damage.

[2] = DSC keratin denaturation temperature change after curling treatment; settings: Type 1 Caucasian hair after curling treatment; larger ΔT indicates more damage

N.O [Ammonium hydroxide, reference compound]
ΔT (TUntreated−TAlkalizer, keratin denaturation temperature) [1]: 0.66 °C
ΔT (TUntreated−TAlkalizer, keratin denaturation temperature) [2]: 1.96 °C

Source: patent publication US20250127698A1, “Hair Perming Compositions With Amine Derivatives” (ELC Management LLC, priority 2023, published 2025)
